According to patent US10428151B2, “Treatment of hematologic malignancies with an anti-CXCR4 antibody” (BRISTOL-MYERS SQUIBB COMPANY, priority 2011, dated 2019):

Tested on: MJ
Experiment: Apoptosis panel 24 h: MJ
Type: cell-based, human
Conditions: MJ (TCL), with cross linking antibody
Experimental: For a subset of cells (see Table 4), a cross linking antibody (goat anti-human IgG Fc specific polyclonal Ab) was added at six-fold excess. For all cell types, camptothecin (CPT), a cytotoxic quinoline alkaloid which inhibits the DNA enzyme topoisomerase I, was added at 10 μM for 24 hours at 37° C. as a positive control for apoptosis induction. Cells were then resuspended in Annexin V binding buffer (10 mM HEPES at pH 7.4, 140 mM NaCl, 2.5 mM CaCl2) and stained with Annexin V-APC and 7-Aminoactinomycin D (7-AAD) or propidium iodide (PI). Cells were washed, resuspended in Annexin V binding buffer, and analyzed by flow cytometry (FACSArray system, BD Biosciences, San Jose, Calif.) and FlowJo software (Treestar, Inc., San Carlos, Calif.).

## BMS-936564: fully human anti-CXCR4 monoclonal antibody; VH SEQ ID NO: 25, VL SEQ ID NO: 29
  Adjusted Percent Apoptosis: 9%
